In ChEMBL document CHEMBL5506064, “Discovery of ITI-333, a Novel Orally Bioavailable Molecule Targeting Multiple Receptors for the Treatment of Pain and Other Disorders” (J Med Chem, 2024):
Calls of active or inactive are those of the source. The calls are words filed in the database; no cut-off is given here.

Protein sequences, listed by entry. Tags and fused reporters are not part of them.
UniProt P31645, whole entry, looked up: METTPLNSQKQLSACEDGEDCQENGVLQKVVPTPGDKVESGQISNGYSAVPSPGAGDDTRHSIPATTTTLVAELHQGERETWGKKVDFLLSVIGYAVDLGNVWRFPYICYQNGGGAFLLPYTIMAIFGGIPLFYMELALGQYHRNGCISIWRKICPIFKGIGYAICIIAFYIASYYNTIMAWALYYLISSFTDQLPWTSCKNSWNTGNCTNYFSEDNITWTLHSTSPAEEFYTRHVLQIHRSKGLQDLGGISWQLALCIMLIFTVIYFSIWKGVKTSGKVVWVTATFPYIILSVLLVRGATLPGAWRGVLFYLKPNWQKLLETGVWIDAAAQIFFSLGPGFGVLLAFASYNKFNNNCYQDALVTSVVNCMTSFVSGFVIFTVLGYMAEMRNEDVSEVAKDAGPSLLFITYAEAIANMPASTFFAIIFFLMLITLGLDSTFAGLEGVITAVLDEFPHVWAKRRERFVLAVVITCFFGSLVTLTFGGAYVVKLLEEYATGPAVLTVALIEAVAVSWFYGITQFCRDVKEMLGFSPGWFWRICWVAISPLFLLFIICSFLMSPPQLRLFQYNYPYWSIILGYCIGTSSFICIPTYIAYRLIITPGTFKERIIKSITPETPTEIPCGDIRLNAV
UniProt P28223, whole entry: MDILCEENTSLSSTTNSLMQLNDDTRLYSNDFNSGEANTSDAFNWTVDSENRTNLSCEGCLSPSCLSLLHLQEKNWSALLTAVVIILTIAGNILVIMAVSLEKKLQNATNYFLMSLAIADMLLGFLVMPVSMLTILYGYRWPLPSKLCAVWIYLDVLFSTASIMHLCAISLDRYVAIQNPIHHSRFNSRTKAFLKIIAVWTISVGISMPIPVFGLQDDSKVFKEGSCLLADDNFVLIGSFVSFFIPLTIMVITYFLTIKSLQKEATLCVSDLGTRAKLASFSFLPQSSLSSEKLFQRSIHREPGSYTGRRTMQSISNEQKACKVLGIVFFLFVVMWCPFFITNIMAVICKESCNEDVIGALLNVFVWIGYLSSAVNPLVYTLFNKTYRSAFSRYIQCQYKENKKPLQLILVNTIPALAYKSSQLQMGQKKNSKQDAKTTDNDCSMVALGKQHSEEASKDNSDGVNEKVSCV
UniProt P14416, whole entry: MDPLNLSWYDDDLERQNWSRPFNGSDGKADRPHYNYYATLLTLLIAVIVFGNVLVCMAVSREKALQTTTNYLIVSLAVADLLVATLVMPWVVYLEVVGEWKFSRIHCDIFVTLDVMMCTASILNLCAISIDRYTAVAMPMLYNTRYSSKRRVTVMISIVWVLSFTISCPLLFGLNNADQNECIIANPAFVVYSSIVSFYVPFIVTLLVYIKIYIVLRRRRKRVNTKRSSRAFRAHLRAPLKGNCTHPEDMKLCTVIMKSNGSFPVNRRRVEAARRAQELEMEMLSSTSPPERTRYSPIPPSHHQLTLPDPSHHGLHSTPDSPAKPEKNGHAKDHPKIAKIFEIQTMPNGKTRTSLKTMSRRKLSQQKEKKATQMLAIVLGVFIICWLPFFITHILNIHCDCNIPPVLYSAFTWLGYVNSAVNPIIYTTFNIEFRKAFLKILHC
UniProt P21728, whole entry: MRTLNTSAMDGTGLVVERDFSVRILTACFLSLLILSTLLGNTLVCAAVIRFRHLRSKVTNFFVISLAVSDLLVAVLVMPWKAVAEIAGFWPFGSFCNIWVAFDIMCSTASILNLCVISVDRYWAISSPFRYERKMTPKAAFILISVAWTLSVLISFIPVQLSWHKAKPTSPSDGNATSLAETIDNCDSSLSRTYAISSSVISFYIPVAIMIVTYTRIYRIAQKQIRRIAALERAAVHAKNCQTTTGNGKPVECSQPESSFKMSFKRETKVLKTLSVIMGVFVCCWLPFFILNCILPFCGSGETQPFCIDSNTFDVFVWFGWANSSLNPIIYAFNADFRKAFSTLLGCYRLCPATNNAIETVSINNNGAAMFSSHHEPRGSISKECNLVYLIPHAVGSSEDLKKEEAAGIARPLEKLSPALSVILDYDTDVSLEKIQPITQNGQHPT

How the values were obtained:
[1] = target: Sodium-dependent serotonin transporter (Homo sapiens) (UniProt P31645); assay: Displacement of [3H]-imipramine from human 5-HT transporter expressed in CHO cell membrane assessed as inhibition of radioligand binding at 200 nM incubated for 60 mins by competition binding based scintillation counter analysis relative to control; type: cell membranes
[2] = target: 5-hydroxytryptamine receptor 2A (Homo sapiens) (UniProt P28223); assay: Displacement of [125I]DOI from human 5-HT2A receptor expressed in HEK293 cell membrane assessed as inhibition of radioligand binding at 100 nM incubated for 60 mins by competition binding based scintillation counter analysis relative to control; type: cell membranes
[3] = target: D(2) dopamine receptor (Homo sapiens) (UniProt P14416); assay: Displacement of [3H]7-OH-DPAT from human dopamine D2 receptor expressed in HEK293 cell membrane assessed as inhibition of radioligand binding at 100 nM incubated for 60 mins by competition binding based scintillation counter analysis relative to control; type: cell membranes
[4] = target: D(1A) dopamine receptor (Homo sapiens) (UniProt P21728); assay: Displacement of [3H]SCH-23390 from human dopamine D1 receptor expressed in CHO cell membrane assessed as inhibition of radioligand binding at 100 nM incubated for 60 mins by competition binding based scintillation counter analysis relative to control; type: cell membranes
[5] = target: 5-hydroxytryptamine receptor 2A (Homo sapiens) (UniProt P28223); settings: HEK293, Cell membrane, dose 10.0 nM, time 60.0 min
[6] = target: Sodium-dependent serotonin transporter (Homo sapiens) (UniProt P31645); assay: Displacement of [3H]-imipramine from human 5-HT transporter expressed in CHO cell membrane assessed as inhibition of radioligand binding at 100 nM incubated for 60 mins by competition binding based scintillation counter analysis relative to control; type: cell membranes
[7] = target: D(1A) dopamine receptor (Homo sapiens) (UniProt P21728); settings: CHO, Cell membrane, dose 50.0 nM, time 60.0 min

SMILES | inhibition [1] | inhibition [2] | inhibition [3] [%] | inhibition [4] | inhibition ([2]; filed as antagonist) [%] | also measured
O=C1CN2c3c(cccc3[C@@H]3CN(CCCNc4ccc(F)cc4)CC[C@@H]32)N1 | inactive | 32% | 25 | 11% |  | 
O=c1[nH]c2cccc3c2n1[C@H]1CCN(CCCOc2ccc(F)cc2)C[C@@H]31 | inactive |  | 37 | 37% | 90 | 
O=C1CN2c3c(cccc3[C@@H]3CN(CCCOc4ccc(Cl)cc4)CC[C@@H]32)N1 |  |  |  | inactive |  | inhibition [5]: 15%
Cn1nc(CCCN2CC[C@H]3[C@@H](C2)c2cccc4c2N3CC(=O)N4)c2ccc(F)cc21 |  |  |  |  |  | inhibition [6]: 35%; inhibition ([3]; filed as antagonist): 43%; inhibition ([4]; filed as antagonist): 54%
N#Cc1ccc(OCCCN2CC[C@H]3[C@@H](C2)c2cccc4c2N3CC(=O)N4)cc1 |  | inactive |  |  |  | inhibition [7]: 7%
O=C1CN2c3c(cccc3[C@@H]3CN(CCCCc4ccc(F)cc4)CC[C@@H]32)N1 | 16% |  | 24 | 32% | 85 | 
O=C1CN2c3c(cccc3[C@@H]3CN(CCCOc4cccc5cccnc45)CC[C@@H]32)N1 |  | inactive |  | inactive |  | 
O=C1CN2c3c(cccc3[C@@H]3CN(CCCSc4ccc(F)cc4)CC[C@@H]32)N1 | inactive |  |  |  | 93 | inhibition ([3]; filed as antagonist): 49%; inhibition ([4]; filed as antagonist): 54%
